ChEMBL document CHEMBL1159093, “Discovery and optimization of RO-85, a novel drug-like, potent, and selective P2X3 receptor antagonist” (Bioorg Med Chem Lett, 2010)

Key:
[1] = system: GABA-A receptor (Rattus norvegicus); assay: Displacement of [3H]flunitrazepam from BZD receptor in rat cerebral cortex at 10 uM after 60 mins by scintillation counting
[2] = target: Translocator protein (Rattus norvegicus) (UniProt P16257); assay: Displacement of [3H]PK 11195 from BZD receptor in rat heart at 10 uM after 15 mins by scintillation counting

## CC(=O)N1CCN(C[C@@H](C)NC(=O)c2cc3c(-c4ccccc4)nn(C)c3s2)CC1
[1]
  Activity: > 50%
[2]
  Activity: > 50%
